According to patent publication US9737075B2, “Synergistic benzoxaborole-containing anti-fungicidal composition” (The Penn State Research Foundation, priority 2015, dated 2017):
Converted amounts (≈) assume the structure as drawn.

Tests used:
Aureobasidium pullulans = assay: Broth microdilution MIC of individual antifungals; format: cell-based; details: 72 h, read-out: Independent MIC
Aspergillus fumigatus = assay: Broth microdilution MIC of individual antifungals; format: cell-based; details: 72 h, read-out: Independent MIC
Botrytis cinerea 10-1728 = assay: Broth microdilution MIC of individual antifungals; format: cell-based; details: Botrytis cinerea, 101728, 72 h, read-out: Independent MIC
Botrytis cinerea B17 = assay: Broth microdilution MIC of individual antifungals; format: cell-based; details: B17, 72 h, read-out: Independent MIC
Candida albicans = assay: Broth microdilution MIC of individual antifungals; format: cell-based; details: 72 h, read-out: Independent MIC
Fusarium verticillioides = assay: Broth microdilution MIC of individual antifungals; format: cell-based; details: 72 h, read-out: Independent MIC
Fusarium oxysporum ST33 = assay: Broth microdilution MIC of individual antifungals; format: cell-based; details: ST33, 72 h, read-out: Independent MIC
[1] = tested on: Fusarium oxysporum f. sp. lycopersici; assay: Broth microdilution MIC of individual antifungals; format: cell-based; details: 72 h, read-out: Independent MIC
Stachybotrys chartarum = assay: Broth microdilution MIC of individual antifungals; format: cell-based; details: 72 h, read-out: Independent MIC
Mucor sp. = assay: Broth microdilution MIC of individual antifungals; format: cell-based; details: 72 h, read-out: Independent MIC
Magnaporthe grisea = assay: microbe, parasite or virus in culture; format: cell-based; details: Pyricularia oryzae, 72 h, read-out: Independent MIC
Phytophthora pini = assay: Broth microdilution MIC of individual antifungals; format: cell-based; details: 72 h, read-out: Independent MIC
Rhizoctonia solani = assay: Broth microdilution MIC of individual antifungals; format: cell-based; details: 72 h, read-out: Independent MIC
Penicillium chrysogenum = assay: Broth microdilution MIC of individual antifungals; format: cell-based; details: 72 h, read-out: Independent MIC
[2] = tested on: Colletotrichum orbiculare; assay: Broth microdilution MIC of individual antifungals; format: cell-based; details: 72 h, read-out: Independent MIC
[3] = tested on: two dozen different fungal organisms; assay: Broth microdilution MIC, summary over the organisms examined; format: cell-based; details: read-out: MIC values
[4] = tested on: Mycosphaerella zeae-maydis; assay: Broth microdilution MIC of individual antifungals; details: Didymella maydis, 72 h, read-out: Independent MIC
Alternaria solani = assay: Broth microdilution MIC of individual antifungals; details: 72 h, read-out: Independent MIC
Aspergillus flavus = assay: Broth microdilution MIC of individual antifungals; details: 72 h, read-out: Independent MIC
Aspergillus niger = assay: Broth microdilution MIC of individual antifungals; details: 72 h, read-out: Independent MIC
Sclerotinia homoeocarpa = assay: Broth microdilution MIC of individual antifungals; details: Clarireedia homoeocarpa, 72 h, read-out: Independent MIC
[5] = tested on: Fusarium solani f. sp. pisi (MP VI); assay: Broth microdilution MIC of individual antifungals; details: 72 h, read-out: Independent MIC
Rhizopus sp. = assay: Broth microdilution MIC of individual antifungals; details: 72 h, read-out: Independent MIC
Pythium aphanodermatum = assay: Broth microdilution MIC of individual antifungals; details: 72 h, read-out: Independent MIC

SMILES: OB1OCc2ccccc21 [BO, 2-(hydroxymethyl)benzene boronic acid hemiester]
- MIC (Aureobasidium pullulans): 1 to 2 µg/mL
- MIC (Aspergillus fumigatus): 0.5 to 1 µg/mL
- MIC (Botrytis cinerea 10-1728): 1 to 2.5 µg/mL
- MIC (Botrytis cinerea B17): 1 to 4 µg/mL
- MIC (Candida albicans): 1 µg/mL
- MIC (Fusarium verticillioides): 1 to 4 µg/mL
- MIC (Fusarium oxysporum ST33): 1 to 2 µg/mL
- MIC [1]: 1 to 2 µg/mL
- MIC (Stachybotrys chartarum): 0.5 to 2 µg/mL
- MIC (Mucor sp.): 0.5 to 1 µg/mL
- MIC (Magnaporthe grisea): 1.56 to 2 µg/mL (≈ 11.6 to 14.9 µM)
- MIC (Phytophthora pini): 0.25 µg/mL
- MIC (Rhizoctonia solani): 6.25 to 12.5 µg/mL
- MIC (Penicillium chrysogenum): 3.12 µg/mL
- MIC [2]: 1.56 µg/mL
- MIC [3]: ≤ 4 µg/mL
- MIC [4]: 2 to 8 µg/mL
- MIC (Alternaria solani): 2 to 4 µg/mL
- MIC (Aspergillus flavus): 2 to 5 µg/mL
- MIC (Aspergillus niger): 2 to 2.5 µg/mL
- MIC (Sclerotinia homoeocarpa): 2 to 8 µg/mL
- MIC [5]: 2 to 6 µg/mL
- MIC (Rhizopus sp.): 2 to 8 µg/mL
- MIC (Pythium aphanodermatum): 4 to 8 µg/mL
